Results: ChEMBL document CHEMBL5154808, “Novel β-Hairpin Antimicrobial Peptides Containing the β-Turn Sequence of -RRRF- Having High Cell Selectivity and Low Incidence of Drug Resistance” (J Med Chem, 2022)

What was measured:
Type in all cases: functional
Staphylococcus aureus = assay: Antimicrobial activity against Staphylococcus aureus ATCC 25923 assessed as reduction of bacterial growth incubated for 18 hrs by CLSI protocol based broth microdilution method
Bacillus subtilis = assay: Antimicrobial activity against Bacillus subtilis ATCC 23857 assessed as reduction of bacterial growth incubated for 18 hrs by CLSI protocol based broth microdilution method
[1] = tested on: Staphylococcus epidermidis; assay: Antimicrobial activity against Staphylococcus epidermidis ATCC 12228 assessed as reduction of bacterial growth incubated for 18 hrs by CLSI protocol based broth microdilution method
Escherichia coli = assay: Antimicrobial activity against Escherichia coli ATCC 25922 assessed as reduction of bacterial growth incubated for 18 hrs by CLSI protocol based broth microdilution method
Pseudomonas aeruginosa = assay: Antimicrobial activity against Pseudomonas aeruginosa ATCC 27853 assessed as reduction of bacterial growth incubated for 18 hrs by CLSI protocol based broth microdilution method

SMILES: CC[C@H](C)[C@H](NC(=O)CN)C(=O)NCC(=O)N[C@@H](C)C(=O)N[C@H](C(=O)N[C@@H](CC(C)C)C(=O)N[C@@H](CCCCN)C(=O)N[C@H](C(=O)N[C@@H](CC(C)C)C(=O)N[C@H](C(=O)N[C@H](C(=O)NCC(=O)N[C@@H](CC(C)C)C(=O)N1CCC[C@H]1C(=O)N[C@@H](C)C(=O)N[C@@H](CC(C)C)C(=O)N[C@H](C(=O)N[C@@H](CO)C(=O)N[C@@H](Cc1c[nH]c2ccccc12)C(=O)N[C@H](C(=O)N[C@@H](CCCCN)C(=O)N[C@@H](CCCNC(=N)N)C(=O)N[C@@H](CCCCN)C(=O)N[C@@H](CCCNC(=N)N)C(=O)N[C@@H](CCC(N)=O)C(=O)N[C@@H](CCC(N)=O)C(N)=O)[C@@H](C)CC)[C@@H](C)CC)[C@@H](C)O)[C@@H](C)O)C(C)C)C(C)C [MELITTIN]
- MIC (Staphylococcus aureus): 8 µM (≈ 22.8 µg/mL)
- MIC (Bacillus subtilis): 2 µM (≈ 5.69 µg/mL)
- MIC [1]: 4 µM (≈ 11.4 µg/mL)
- MIC (Escherichia coli): 8 µM (≈ 22.8 µg/mL)
- MIC (Pseudomonas aeruginosa): 8 µM (≈ 22.8 µg/mL)

Converted amounts (≈) assume the structure as drawn.
